Results on one compound are retold here after article PMC3929130, “Identification of the KDM2/7 Histone Lysine Demethylase Subfamily Inhibitor and its Antiproliferative Activity” (Journal of Medicinal Chemistry, 2013).

Protein sequences, listed by entry. Tags and fused reporters are not part of them. Lines headed by an entry give the natural chain unless they say otherwise; changes in a name come on top.
UniProt Q9UPP1: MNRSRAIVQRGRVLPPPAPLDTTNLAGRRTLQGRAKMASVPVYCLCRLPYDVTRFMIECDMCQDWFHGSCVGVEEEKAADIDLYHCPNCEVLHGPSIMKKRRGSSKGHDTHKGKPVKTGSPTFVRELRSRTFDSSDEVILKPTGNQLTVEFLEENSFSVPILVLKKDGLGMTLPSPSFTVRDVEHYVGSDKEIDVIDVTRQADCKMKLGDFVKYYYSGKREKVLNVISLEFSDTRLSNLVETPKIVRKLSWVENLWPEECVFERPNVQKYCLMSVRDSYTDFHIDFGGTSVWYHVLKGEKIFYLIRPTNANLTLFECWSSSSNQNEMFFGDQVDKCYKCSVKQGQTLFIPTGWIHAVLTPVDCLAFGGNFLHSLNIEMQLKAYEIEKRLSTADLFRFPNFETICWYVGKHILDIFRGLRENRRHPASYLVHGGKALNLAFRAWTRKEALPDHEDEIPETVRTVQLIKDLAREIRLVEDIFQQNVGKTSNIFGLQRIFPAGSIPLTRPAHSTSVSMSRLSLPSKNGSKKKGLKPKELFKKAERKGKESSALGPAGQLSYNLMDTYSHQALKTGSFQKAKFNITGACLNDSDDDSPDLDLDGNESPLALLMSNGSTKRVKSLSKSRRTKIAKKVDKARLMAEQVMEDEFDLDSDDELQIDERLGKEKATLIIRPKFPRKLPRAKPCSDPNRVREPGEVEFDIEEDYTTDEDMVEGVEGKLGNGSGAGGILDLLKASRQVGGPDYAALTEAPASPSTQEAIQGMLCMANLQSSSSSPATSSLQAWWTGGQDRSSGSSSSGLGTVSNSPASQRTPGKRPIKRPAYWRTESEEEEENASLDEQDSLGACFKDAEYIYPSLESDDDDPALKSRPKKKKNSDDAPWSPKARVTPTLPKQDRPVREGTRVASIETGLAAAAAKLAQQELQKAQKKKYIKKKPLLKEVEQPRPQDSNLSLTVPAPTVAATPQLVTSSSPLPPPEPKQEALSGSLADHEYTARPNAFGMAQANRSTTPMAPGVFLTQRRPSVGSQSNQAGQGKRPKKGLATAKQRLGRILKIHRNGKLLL

In this assay the target is KDM7B (Homo sapiens, UniProt Q9UPP1). Nature of the assay: KDM7B inhibition assay (MALDI-TOF MS, H3K4me3K9me2 peptide). As to conditions: means of two experiments. In kind it is biochemical.

For `CN(C)NC(=O)CCC(=O)O` [compound 4, daminozide], the IC50 stood at 19 µM.
